# Screening data: PubChem BioAssay, several laboratories
# An excerpt weighted towards active compounds, which were near 4.2% of everything screened.
# UUG fidelity – modulators of yeast start codon fidelity, primary screen, whole organism, S. cerevisiae, single point, plate reader; S. cerevisiae UUG-firefly luciferase reporter, luminescence/redox ratio; activity score, % at 18.7 µM; 0.13% of 350,000 active; AID 602363, 2012;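 active = replicate mean at a twofold rise or more, about +100% in these data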;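 also: firefly luciferase made from a UUG start codon reports start codon fidelity; reporter light over untreated wells divided by growth signal over untreated wells; some hits fall short of that in this replicate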
# MC4R ag barr – agonists of human melanocortin 4 receptor (MC4R) beta-arrestin; P32245; U2OS MC4R beta-arrestin complementation, luminescence; percent of melanotan II response, DMSO zero; activation, % at 8.9 µM; 0.98% of 360,000 active; AID 540308;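 active = activation above a per-plate cutoff, the mean activation of sample wells on that plate plus 3 SD, cut at about 8% in these data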
# MC4R antagonist – blocks human MC4R cAMP signaling; P32245; MC4R-expressing cells, MTII-stimulated cAMP, LANCE TR-FRET; inhibition, % at 6.5 µM; 0.48% of 360,000 active;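 active = inhibition above its plate's cutoff, the mean of tested wells on that plate plus 3 SD, cut at about 29% in these data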
#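 Test system: U2OS cells stably expressing human melanocortin 4 receptor (MC4R); also added: Melanotan II challenge; compound: 6.5 µM single dose; timing: 30-min compound preincubation, 1-h Melanotan II challenge, 1-h detection, room temperature; signal: Eu-cAMP/anti-cAMP TR-FRET, emission 671 nm; repeats: one well per compound, no replicates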
# HDAC3 inhib – human HDAC3 inhibition; O15379; recombinant HDAC3, fluorogenic peptide/trypsin coupled, fluorescence; inhibition, % at 8.3 µM; 0.15% of 320,000 active; AID 2718; in the data active = inhibition above about 26%, passing the limit was not always enough
# ALR H2O2 inh – inhibitors of human ALR sulfhydryl oxidase, primary screen, biochemical, H2O2 detection, HRP-luminol luminescence, single point. 290,000 compounds, 3.8% hits. inhibition, % (concentration not given with the values). purified ALR, DTT oxidation. AID 485317, 2010;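 active means mean and each replicate at 75% or more; inconclusive means only one of the two met; inactive means neither met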;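 further: stock transfer was 7.5 nL into about 7.5 µL; 0% = neutral wells and 100% = wells with inactivated enzyme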
# NALP1 inh – NALP1 inhibition. AID 2071. S. cerevisiae NALP1/ASC/caspase-1 growth, X-gal OD620, 72 h. 0.61% of 280,000 active. inhibition, % at 10 µM; in the data active = inhibition mostly above about 24%, no sharp cut-off; inactive = mostly below about 32%
# Numbers stand for hits; . = inactive; / = no result.
SMILES,UUG fidelity,MC4R ag barr,MC4R antagonist,HDAC3 inhib,ALR H2O2 inh,NALP1 inh
CCS(=O)(=O)N1CCCCN2[C@@H](CO)[C@H](c3ccc(C#CC(C)(C)O)cc3)[C@@H]2C1,.,/,/,/,/,/
Cc1ccccc1S(=O)(=O)NCC[C@H]1CC[C@H](NC(=O)C2CCC2)[C@H](CO)O1,.,/,/,/,/,/
Cc1cc(C)n(-c2ccc(C(=O)NCc3ccc4c(c3)OCO4)cc2)n1,.,.,.,.,/,.
Cc1cc(C)n(-c2ccc(C(=O)NCc3ccc(F)cc3)cc2)n1,.,.,.,.,.,28.8
CSCc1ccc(C(=O)NCc2ccc(F)cc2)cc1,/,.,.,.,98.0,.
Cc1ccc(NC(=O)COC(=O)c2ccc(-n3nc(C)cc3C)cc2)c(F)c1,.,8.6,.,.,.,/
COCC(=O)Nc1ccc2c(c1)[C@H]1C[C@@H](CC(=O)N3CCc4ccccc4C3)O[C@@H](CO)[C@H]1O2,.,/,/,/,/,/
CCS(=O)(=O)N[C@H]1C=C[C@@H](CC(=O)NCc2ccc(Cl)cc2)O[C@@H]1CO,.,/,/,/,/,/
C[C@@H]1CN([C@H](C)CO)C(=O)c2cc(Br)cnc2O[C@@H]1CN(C)CC1CC1,.,/,/,/,/,/
O=S(=O)(N/N=C1\CC(c2ccccc2)Oc2ccccc21)c1ccccc1 (stereo unspecified),.,.,.,.,95.7,.
COCC(=O)Nc1ccc2c(c1)C(=O)N(C)C[C@@H](OC)[C@@H](C)CN(CCC(F)(F)F)[C@H](C)CO2,.,/,/,/,/,/
COc1ccc(NC(=O)N2C[C@@H]3[C@H](c4ccccc42)[C@H](CO)N3Cc2ccccn2)cc1,.,/,/,/,/,/
Cc1ccc2nc(NCCO)nc(-c3ccccc3)c2c1,.,.,.,.,98.1,.
COc1cc2c(cc1NC(=O)CSc1nnnn1-c1ccccc1)oc1ccccc12,/,36.9,.,.,.,.
O=C(CSc1cccc[n+]1[O-])Nc1cc2c(cc1Cl)C(=O)c1ccccc1C2=O,/,.,.,.,/,54.8
O=C(CSc1cccc[n+]1[O-])Nc1cc([N+](=O)[O-])ccc1Cl,/,.,.,.,/,.
COc1cc2c(cc1NC(=O)CSCC(=O)O)oc1ccccc12,.,.,.,.,.,.
COc1cc2c(cc1NC(=O)CSc1cccc[n+]1[O-])oc1ccccc12,/,.,.,.,95.7,.
COc1cc2c(cc1NC(=O)CSc1ccc(C)cc1)oc1ccccc12,/,.,.,.,.,.
C[C@H]1CN([C@@H](C)CO)C(=O)c2cc(C#CCN(C)C)cnc2O[C@@H]1CN(C)Cc1ccc(F)cc1,.,/,/,/,/,/
C[C@@H]1CCCCO[C@@H](CN(C)C)[C@H](C)CN([C@@H](C)CO)C(=O)c2cc(NS(=O)(=O)c3cccs3)ccc2O1,.,/,/,/,/,/
CS(=O)(=O)N(CC(=O)NCc1ccccn1)Cc1ccc(Cl)cc1,.,.,.,.,98.8,.
C[C@@H]1CN([C@@H](C)CO)C(=O)c2cccc(NS(C)(=O)=O)c2O[C@@H]1CN(C)C(=O)Nc1ccc2c(c1)OCO2,.,/,/,/,/,/
CCC(=O)Nc1ccc2c(c1)C(=O)N(C)C[C@H](OC)[C@H](C)CN(CC1CCCCC1)[C@H](C)CO2,.,/,/,/,/,/
Fc1ccc(C2CC(c3ccccc3)Nc3ncnn32)cc1 (stereo unspecified),.,.,.,.,.,35.2
SMILES,UUG fidelity,MC4R ag barr,MC4R antagonist,HDAC3 inhib,ALR H2O2 inh,NALP1 inh
COCCNc1c(-c2ccc(OC)cc2)nc2ccc(Cl)cn12,/,.,.,.,98.7,.
N=C1/C(=C/c2cccn2Cc2ccc(Cl)cc2)C(=O)N=C2SC=CN12,/,9.4,.,.,.,.
C[C@H]1CCCCO[C@H](CN(C)Cc2ccc(Cl)c(Cl)c2)[C@@H](C)CN([C@@H](C)CO)C(=O)c2cc(NC(=O)Cc3ccccc3)ccc2O1,.,/,/,/,/,/
C[C@H](CO)N1C[C@H](C)[C@H](CN(C)C(=O)C2CCC2)Oc2cc(-c3cncnc3)ccc2S1(=O)=O,.,/,/,/,/,/
O=c1c2ccccc2sn1-c1ccccc1,194.8,.,.,49.1,.,.
Cc1ccc(-n2sc3ccccc3c2=O)cc1S(=O)(=O)N1CCCCC1,.,.,53.3,39.4,/,.
O=c1c2ccccc2sn1-c1ccc(S(=O)(=O)N2CCCCC2)cc1,.,.,.,.,.,/
COc1ccc2c3c(cccc13)C(=O)N(O)C2=O,.,.,.,.,/,.
CCC1=NNc2cccc3c(OC)ccc1c23,/,/,/,31.0,.,.
COc1ccc(NC(=O)CSc2nc(N)c(C#N)cc2C#N)cc1,/,.,.,.,.,.
